Our source for the activation values is PubChem BioAssay AID1961 (Sanford-Burnham Center for Chemical Genomics, 2009).

Chains of the proteins cited; added tags and fusions are not shown.
UniProt Q9Y2T6, whole entry: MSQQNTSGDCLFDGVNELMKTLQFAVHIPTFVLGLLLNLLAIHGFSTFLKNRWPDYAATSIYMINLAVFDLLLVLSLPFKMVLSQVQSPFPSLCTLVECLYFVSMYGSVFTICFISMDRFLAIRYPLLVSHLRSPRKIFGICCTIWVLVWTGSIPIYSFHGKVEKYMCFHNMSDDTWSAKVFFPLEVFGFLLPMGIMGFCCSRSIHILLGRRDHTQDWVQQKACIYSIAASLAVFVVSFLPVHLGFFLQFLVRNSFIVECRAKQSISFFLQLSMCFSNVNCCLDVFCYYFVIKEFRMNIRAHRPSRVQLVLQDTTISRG

SMILES strings stand for the structures. This is a selection; strong and weak results do not stand in their true shares. Activity calls are given as the source filed them.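 The calls were made as follows: active = activation above 40% with more than 50 cells counted in the well; inconclusive = wells holding fewer than 50 cells, flagged as toxic or sparse; inactive = the rest.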

The test concerns the target G-protein coupled receptor 55 (Homo sapiens) (UniProt Q9Y2T6). Briefly: selective activators of receptor GPR55 – imaging, U2OS cells, beta-arrestin-GFP redistribution, primary screen (AID 1961).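 Also: U2OS osteosarcoma cells stably expressing GPR55 and beta-arrestin-GFP; plate controls were DMSO negative control for no effect and LPI positive control for full effect.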 Conditions: at 10 µM, stronger effect = higher value.
Consider `Cc1cc(C)cc(N(C(=O)c2ccccc2)C2CCN(C(=O)OC(C)(C)C)CC2)c1`, for which the activation is inactive: 0%.

For the molecule `O=C(NCC1(N2CCOCC2)CCCCC1)c1cc2ccccc2o1`, the activation was inactive: -0.1%.

With `O=C(OC1CN2CCC1CC2)C1c2ccccc2Oc2ccccc21` (centres undefined), the activation was inactive: 0.3%.

With `N#CC1(Nc2ccccc2)CCN(Cc2ccccc2)CC1`, the activation is inactive: 0.3%.

With `CCOC(=O)N1CCC(Nc2ccc(OC)cc2)CC1`, the activation was inactive: -0.4%.

As to `CC(C)(C)OC(=O)N1CCC(N(C(=O)c2ccccc2)c2ccc(F)cc2)CC1`, the activation is inactive: -0.1%.

As for `COc1ccc(C(=O)NCC2(N3CCCCC3)CCCCC2)c(OC)c1OC`, the activation was inactive: -0.2%.

In the case of `COc1ccc(C(=O)NCC2(N3CCCCC3)CCCCC2)cc1`, the activation is inactive: 0.1%.

In the case of `O=C(NCC1(N2CCCCC2)CCCCC1)c1ccc(=O)[nH]c1`, the activation was inactive: -0.1%.

Regarding `CSc1ccccc1C(=O)NCC1(N2CCCCC2)CCCCC1`, the activation is inactive: -0.2%.

Consider `Cc1ccc(OCC(C)C)c(CN(CCCl)CCCl)c1`, for which the activation is inactive: 0.3%.

On to `COc1cc(C(=O)NCC2(N(C)C)CCCCC2)ccc1OC(F)F`, for which the activation is inactive: 0%.

For the molecule `CCOC(=O)N1CCC(Nc2cccc(C)c2)CC1`, the activation is inactive: -0.1%.

On to `CCOc1ccc(C)cc1CN(CCCl)CCCl`, for which the activation was inactive: 0.2%.

In the case of `CCOC(=O)N1CCC(Nc2ccc(F)cc2)CC1`, the activation is inactive: 1.2%.

In the case of `COc1ccc(NC2CCN(CCc3ccccc3)CC2)c(OC)c1`, the activation is inactive: -0.1%.

With `O=C(NCC1(N2CCCCC2)CCCCC1)c1ccc(F)cc1`, the activation is inactive: -0.1%.

Turning to `O=C(NCC1(N2CCCCC2)CCCCC1)c1cccc(C(F)(F)F)c1`, the activation is inactive: -0.2%.

As to `O=C(NCC1(N2CCOCC2)CCCCC1)c1cc(=O)[nH]c2ccccc12`, the activation is inactive: -0.2%.

As to `COc1cc(C(=O)NCC2(N3CCCCC3)CCCCC2)ccc1OC(F)F`, the activation was inactive: -0.2%.

For `COc1ccc(NC2CCN(C(=O)OC(C)(C)C)CC2)cc1`, the activation is inactive: -0.2%.

On to `CN1CCN(CCOC(=O)C(O)(c2ccccc2)c2ccccc2)CC1`, for which the activation is inactive: -0.2%.

As for `O=C(NCC1(N2CCCCC2)CCCCC1)c1ccc(OC(F)F)cc1`, the activation was inactive: 0%.

Take `N#CC1(Nc2ccccc2)CCN(CCc2ccccc2)CC1`: the activation is inactive: 0.3%.

`CCN1CCC(Nc2ccc(Cl)cc2)CC1`: the activation was inactive: -0.1%.

On to `O=C(NCC1(N2CCCCC2)CCCCC1)c1cccc([N+](=O)[O-])c1`, for which the activation was inactive: 0.1%.

Turning to `CCCOc1ccc(C(=O)NCC2(N(C)C)CCCCC2)cc1OC`, the activation was inactive: 0%.

In the case of `CC(C)c1ccc(NC2CCN(C(=O)OC(C)(C)C)CC2)cc1`, the activation is inactive: 1%.

For `CN(C)c1cccc(C(=O)NCC2(N3CCCCC3)CCCCC2)c1`, the activation is inactive: 0%.

As for `COc1ccc(CN(CCCl)CCCl)cc1Cl`, the activation was inactive: -0.1%.

With `COc1cc(OC)c(C(=O)NCC2(N(C)C)CCCCC2)cc1OC`, the activation was inactive: -0.1%.

For the molecule `CCOC(=O)N1CCC(Nc2ccc(C)cc2)CC1`, the activation was inactive: -0.2%.

For the molecule `N/C(=N\O)c1c(N)no[n+]1[O-]`, the activation is inactive: -0.2%.

Consider `O=C(OC1CN2CCC1CC2)C1c2ccccc2C=Cc2ccccc21` (centres undefined), for which the activation was inactive: -0.3%.

Turning to `COc1ccc(C(=O)NCC2(N3CCOCC3)CCCCC2)cc1OC`, the activation is inactive: 0.1%.

With `CN(C)C1(CNC(=O)c2cccc(C#N)c2)CCCCC1`, the activation is inactive: -0.1%.

Take `CCCN1CCC(Nc2cc(OC)cc(OC)c2)CC1`: the activation was inactive: 0.3%.

For `c1ccc(CN2CCC(Nc3ccccc3)CC2)cc1`, the activation was inactive: 0%.

For `N#Cc1ccc(C(=O)NCC2(N3CCCCC3)CCCCC2)cc1`, the activation is inactive: -0.6%.

In the case of `CC(C)(C)OC(=O)N1CCC(N(C(=O)c2ccccc2)c2ccc(Cl)cc2)CC1`, the activation was inactive: -0.1%.

On to `CCN1CCC(Nc2cccc(F)c2)CC1`, for which the activation is inactive: 0.1%.

Take `CN(C)c1ccc(C(=O)NCC2(N3CCCCC3)CCCCC2)cc1`: the activation was inactive: -0.2%.

`COc1cc(OC)cc(C(=O)NCC2(N3CCCCC3)CCCCC2)c1`: the activation is inactive: -0.1%.

On to `Fc1ccccc1NC1CCN(Cc2ccccc2)CC1`, for which the activation was inactive: -0.2%.

`COc1cccc(C(=O)N(c2cc(C)cc(C)c2)C2CCN(C(=O)OC(C)(C)C)CC2)c1`: the activation was inactive: -0.1%.

On to `COc1cc(OC)cc(C(=O)NCC2(N3CCOCC3)CCCCC2)c1`, for which the activation is inactive: -0.7%.

For `CCC(CO)(C(=O)OC1CN2CCC1CC2)c1ccccc1` (centres undefined), the activation was inactive: -0.2%.

With `CN1CCC(Nc2ccc(Cl)cc2)CC1`, the activation was inactive: -0.1%.

Take `CCCOc1ccc(C)cc1CN(CCCl)CCCl`: the activation is inactive: -0.1%.

As for `CN1CCC(Nc2ccc(F)c(Cl)c2)CC1`, the activation is inactive: -0.2%.

`CCOc1ncccc1C(=O)NCC1(N2CCOCC2)CCCCC1`: the activation was inactive: 0.2%.

As to `O=C(O)C1(Nc2ccccc2)CCN(Cc2ccccc2)CC1`, the activation is inactive: 0.3%.

`CC(C)(C)OC(=O)N1CCC(Nc2ccccc2)CC1`: the activation is inactive: -0.2%.

As to `CCCOc1ccc(C(=O)NCC2(N(C)C)CCCCC2)cc1`, the activation is inactive: 0%.
